Assay results: US20080138291A1, “Sulfonamide Derivatives Having Carbonic Anhydrase Inhibiting Activity and their Use as Therapeutic and Diagnostic Agents” (UNION LIFE SCIENCES LTD., priority 2005, published 2008)

Chains of the proteins cited; added tags and fusions are not shown. Residues count along the entry.
UniProt O43570, 30-289 limits assumed: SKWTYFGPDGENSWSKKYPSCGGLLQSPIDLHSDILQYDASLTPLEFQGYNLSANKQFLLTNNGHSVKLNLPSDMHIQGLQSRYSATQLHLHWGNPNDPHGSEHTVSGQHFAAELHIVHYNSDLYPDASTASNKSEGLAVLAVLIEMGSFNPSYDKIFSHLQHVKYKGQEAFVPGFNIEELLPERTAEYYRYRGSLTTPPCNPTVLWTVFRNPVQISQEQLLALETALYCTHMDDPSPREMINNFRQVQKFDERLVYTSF
UniProt P00915, whole entry: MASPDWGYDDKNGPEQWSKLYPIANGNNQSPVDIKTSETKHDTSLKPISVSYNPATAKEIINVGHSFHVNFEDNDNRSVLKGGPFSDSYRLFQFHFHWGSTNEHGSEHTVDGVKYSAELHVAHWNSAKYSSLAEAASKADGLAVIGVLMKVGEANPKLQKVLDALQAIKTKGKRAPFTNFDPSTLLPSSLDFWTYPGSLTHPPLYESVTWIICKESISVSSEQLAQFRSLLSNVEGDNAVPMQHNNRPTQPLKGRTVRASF

How the values were obtained:
[1] = biological target: hCA II (Homo sapiens, UniProt P00918); assay: CA inhibition, CO2 hydration method, isozyme II; type: biochemical; conditions: read-out: KI hCA II, Table 2, human cloned isozyme
[2] = biological target: hCA XII (Homo sapiens, UniProt O43570)
[3] = biological target: hCA IX (Homo sapiens, UniProt Q16790); assay: CA inhibition, CO2 hydration method, isozyme IX (catalytic domain); type: biochemical; conditions: read-out: KI hCA IX, Table 2, catalytic domain of human cloned isozyme
[4] = biological target: hCA I (Homo sapiens, UniProt P00915); assay: CA inhibition, CO2 hydration method, isozyme I; type: biochemical; conditions: read-out: KI hCA I, Table 2, human cloned isozyme

Which Ki [1] does the source give for `NS(=O)(=O)c1ccc(NC(=O)Nc2ccc(-c3c4ccc(=O)cc-4oc4cc(O)ccc34)c(C(=O)O)c2)c(Br)c1` here?
Its Ki is 41 nM.

And the Ki [2]?
Its Ki is 9 nM.

And the Ki [3]?
Its Ki is 20 nM.

And the Ki [4]?
Its Ki is 1300 nM.
